Tested on: human macrophages
Assay: TNF-α production by human macrophages with β-amyloid or MPTP
Conditions: FIGS. 12 and 13

HuSOD: recombinant human Cu/Zn SOD, homologous comparator
effect on β-amyloid- and MPTP-induced TNF-α production and apoptosis of macrophages: has no or few effects

From US6426068B1, “Therapeutic uses of heterologous superoxide dismutase (HSD), and method for selecting said HSD” (Fractales Biotech, priority 1998, dated 2002)
